{
  "sequences": {"note": "Amino acid sequences for entries named in this document (tags omitted). Residues count along the entry.", "UniProt P25774, 115-331 limits assumed": "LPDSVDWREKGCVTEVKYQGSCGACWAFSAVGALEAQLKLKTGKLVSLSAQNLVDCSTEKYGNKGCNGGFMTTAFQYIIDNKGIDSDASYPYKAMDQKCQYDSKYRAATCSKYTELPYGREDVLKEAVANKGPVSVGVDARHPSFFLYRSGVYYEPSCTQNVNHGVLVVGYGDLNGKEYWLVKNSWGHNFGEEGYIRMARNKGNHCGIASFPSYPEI"},
  "source": "PubChem BioAssay AID501",
  "about": "(PCMD, 2006)",
  "note": "The list shows a part of the results, in another mix than the full data. The source made the active and inactive calls. Rule as the data show it: active = inhibition above about 32% (passing the limit was not always enough); inconclusive = no clear call, values can overlap the other calls.",
  "data": [
    {"molecular_target": "Cathepsin S (Homo sapiens) (UniProt P25774)", "assay": "inhibitors of human cathepsin S, biochemical, compound mixtures (AID 501);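 also: 0% = enzyme without compound and 100% = blank without enzyme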", "conditions": "recombinant cathepsin S, AMC dipeptide fluorescence, pooled mixtures; hits give high values;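 tested at 5 µM per compound within 10-compound mixtures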", "values": [
      {"smiles": "O=C(OC1CN2CCC1CC2)C1c2ccccc2Oc2ccccc21", "note": "(stereo unspecified)", "inhibition": "inactive: -9.91%"},
      {"smiles": "N#CC1(Nc2ccccc2)CCN(CCc2ccccc2)CC1", "inhibition": "inactive: -0.165%"},
      {"smiles": "N/C(=N\\O)c1c(N)no[n+]1[O-]", "inhibition": "inactive: 0.325%"},
      {"smiles": "Fc1ccccc1NC1CCN(Cc2ccccc2)CC1", "inhibition": "inactive: -22.3%"},
      {"smiles": "CCC(CO)(C(=O)OC1CN2CCC1CC2)c1ccccc1", "note": "(stereo unspecified)", "inhibition": "inactive: 2.47%"},
      {"smiles": "CCOc1ncccc1C(=O)NCC1(N2CCOCC2)CCCCC1", "inhibition": "inactive: -1.99%"}
    ]}
  ]
}
